# Yeast mating assay 2: variants of the scFv Ab-91

Antigen: PDVDLGDISGINAS, a 14-residue peptide of the SARS-CoV-2 spike HR2 region.

Parent: Ab-91, a human scFv built as VL, three GGGGS repeats, VH. Only the CDRs of the heavy chain vary.
VL: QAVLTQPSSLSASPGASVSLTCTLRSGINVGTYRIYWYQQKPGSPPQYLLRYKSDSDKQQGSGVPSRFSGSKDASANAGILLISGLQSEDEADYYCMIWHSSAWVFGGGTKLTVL
VH: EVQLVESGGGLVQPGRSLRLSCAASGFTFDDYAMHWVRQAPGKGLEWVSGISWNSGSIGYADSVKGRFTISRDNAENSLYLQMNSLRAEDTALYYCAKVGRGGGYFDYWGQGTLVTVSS

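The parent was found by panning a naive human phage display library on the peptide. AAYL51 was designed without a model: most single CDR substitutions and a random sample of double and triple ones. AlphaSeq pools MATa yeast showing the antibodies with MATalpha yeast showing the peptide. The frequency of each diploid, read from paired DNA barcodes, reflects how well the two displayed proteins bind. A regression on co-assayed BCL2-family reference pairs converts the normalised counts of each replicate to an apparent Kd. There are three technical replicates.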

The parent's heavy chain CDRs are GFTFDDYAMH, GISWNSGSIGYADSVK, VGRGGGYFDY; each variant's own CDRs replace them letter for letter.
Affinities are written as log10 Kd with Kd in nM; a lower number is a better binder.
Averages over replicates are reported, and they cover detected replicates only.
Where no diploid with the target was found in that replicate, the entry reads "ND": below detection, most likely a poor binder, though not proof of it.

| CDR-H1 | CDR-H2 | CDR-H3 | log10 Kd, replicates | mean log10 Kd (nM) | control signals |
|---|---|---|---|---|---|
| GFTFDDYIMH | GISWNKGSIGYADSVK | VGRGGGYFDN | ND 4.71 ND | 4.71 | 2 of 9 (3.68) |
| GFTFDDYAMH | GISWNSGSIGYADSVK | VGPGQGSFDY | 6.72 4.49 ND | 5.60 | 3 of 9 (4.77) |
| GFTFDDYAMH | GISWNSGSIGYADHVK | YGRGIGYFDY | ND ND ND | ND | 1 of 9 (4.16) |
| GFTMDDYAMH | GISWNSGSIAYADSVK | CGRGGGYFDY | 3.93 ND ND | 3.93 | 1 of 9 (4.82) |
| GFTFSDYAMH | GISWNSGSKGYADSVK | VQRGGGYFDY | ND ND ND | ND | 0 of 9 |
| GFTFDDYAMC | CISWNSGSIGYADSVP | VGRGGGYFDY | 4.10 4.97 ND | 4.54 | 1 of 9 (4.09) |
| GFTFDDYAMH | GISWISLSIGYADSVK | VGTGGGYFDY | 5.36 ND ND | 5.36 | 1 of 9 (4.68) |
| GFTEDDNAMH | GISRNSGSIGYADSVK | VGRGGGYFDY | 4.81 ND ND | 4.81 | 2 of 9 (3.41) |
| GFTFCDYAMH | GISWNSGSWGYAGSVK | VGRGGGYFDY | 4.63 ND ND | 4.63 | 1 of 9 (3.63) |
| GFTFDDYAMH | GISWNSGSIGNADSVK | VGRGYGYFDY | ND 4.32 ND | 4.32 | 4 of 9 (4.26) |
| EFTFDDYAME | GISWNSGSIGYTDSVK | VGRGGGYFDY | 2.00 2.44 2.27 | 2.24 | 3 of 9 (3.97) |
| GFTFDDYAMH | GISWWSLSIGYAFSVK | VGRGGGYFDY | 4.47 ND ND | 4.47 | 7 of 9 (4.81) |
| GFTFDDYAMH | FISWGSGSILYADSVK | VGRGGGYFDY | ND ND ND | ND | 1 of 9 (4.31) |
| GFTYDDYFMH | GFSWNSGSIGYADSVK | VGRGGGYFDY | ND ND ND | ND | 2 of 9 (3.75) |
| GFTFDDYAMH | GISWNSGSIGYADSVK | VGRVGYYFDY | 1.03 1.01 0.62 | 0.88 | 0 of 9 |
| GFYFDDYAMH | GISWNSGSIGYADSVK | VGRAGGYFDY | 2.69 ND ND | 2.69 | 0 of 9 |
| GDTFDDYKMH | GISWNSGSMGYADSVK | VGRGGGYFDY | ND 4.89 5.74 | 5.31 | 3 of 9 (4.42) |
| GFTFDDYAMH | GISWNTSSIGYADGVK | VGRGGGYFDY | ND ND ND | ND | 1 of 9 (4.52) |
| GFTFDDYAMH | DISWNSGSIGYADSVK | NGHGGGYFDY | ND ND ND | ND | 1 of 9 (4.27) |
| GFHFDDYAMH | GISWNSGSIGYADSVK | VIRGGGTFDY | ND 3.37 ND | 3.37 | 3 of 9 (3.45) |
| GFTFDDYAHH | GIDWNSVSIGYADSVK | VGRGGGYFDY | 4.77 4.39 5.05 | 4.74 | 3 of 9 (4.38) |
| GFTFDDYAMH | GISWNSGSIGYADFIK | VYRGGGYFDY | 5.20 ND ND | 5.20 | 6 of 9 (4.88) |
| GFTFDDYAMH | GISWNSGQAGYADSVM | VGRGGGYFDY | 0.58 0.54 -0.04 | 0.36 | 3 of 9 (4.18) |
| GFTFDDGAMH | RISWNSGSIGYADSVK | VGRGGGYFQY | 3.74 ND ND | 3.74 | 0 of 9 |
| GQTFDDYAMH | GISWNSGSIGYADSVK | KGRWGGYFDY | ND ND ND | ND | 1 of 9 (4.79) |
| GFTFDDYAMH | GISWNSGSNGYADSVK | CGRGGGYFDY | ND ND ND | ND | 0 of 9 |
| GFTFDDYAMH | GIVWNSGSIGYADSVK | VFRGGGYHDY | ND ND 3.68 | 3.68 | 0 of 9 |
| GFTFDDYAMH | GISWNSGSIWAADSVK | VGIGGGYFDY | 5.25 ND 5.04 | 5.15 | 3 of 9 (4.99) |
| GFTFDDYAMH | GICWNSGSILYADSVK | VPRGGGYFDY | ND ND ND | ND | 0 of 9 |
| GCTFDDYWVH | GISWNSGSIGYADSVK | VGRGGGYFDY | ND ND ND | ND | 2 of 9 (3.90) |
| GFTFMDYAMH | GISWNSGSIGWAGSVK | VGRGGGYFDY | ND ND ND | ND | 1 of 9 (4.59) |
| GFTFDDTAMH | GISWNSGSIEYADSVK | VGRGGGMFDY | 3.05 ND ND | 3.05 | 3 of 9 (4.27) |
| GFTFDDYAMH | GISWNSGSIGAADSVK | VPRGGHYFDY | ND ND ND | ND | 1 of 9 (4.22) |
| GFMFDDEAMH | GISWNSGHIGYADSVK | VGRGGGYFDY | 3.93 ND ND | 3.93 | 2 of 9 (4.35) |
| GFTFDDYAMW | GIDWNSGSIGYADSVK | VGWGGGYFDY | 4.11 ND ND | 4.11 | 1 of 9 (4.61) |
| GFTFDDNAMH | GISWNSGSIQYADSVK | VGRGGGYFDY | 4.24 ND ND | 4.24 | 4 of 9 (4.69) |
| GFRFDDYAMH | WISGNSGSIGYADSVK | VGRGGGYFDY | 5.95 4.69 4.94 | 5.19 | 8 of 9 (4.72) |
| GFTHDDYAMH | GISWNSGSIGYADSVK | VGRGGGEFDY | ND ND ND | ND | 0 of 9 |
| GFTFDDYAMH | GISWNSGNIGYADSVK | VGRVGGYFDY | 3.26 4.03 3.59 | 3.63 | 7 of 9 (4.37) |
| GFTFDDYAMH | GISGNSGSIGYADSVT | VGRGYGYFDY | ND ND ND | ND | 2 of 9 (4.12) |
| GFTFDDYAMH | GISANHGSIGYQDSVK | VGRGGGYFDY | 3.29 3.55 3.82 | 3.55 | 4 of 9 (4.93) |
| GFTFDDYAMH | EILWNSGNIGYADSVK | VGRGGGYFDY | ND ND 2.56 | 2.56 | 1 of 9 (3.00) |
| GFTFDDYAMH | GISWNRGSIGYADSLT | VGRGGGYFDY | 2.98 ND ND | 2.98 | 4 of 9 (4.41) |
| GFTFDDYAMH | GISWNSGSIGYADSVK | VGIQGGYFIY | ND ND ND | ND | 0 of 9 |
| GNTFGDYAAH | GISWNSGSIGYADSVK | VGRGGGYFDY | 4.88 4.69 5.14 | 4.90 | 5 of 9 (5.17) |
| GLTFDDYAMH | GISWNSCSIGYADSVK | VGRGGGYFDY | 3.74 ND 3.84 | 3.79 | 3 of 9 (4.61) |
| GFTFKDYACH | GISDNSGSIGYADSVK | VGRGGGYFDY | 4.56 4.09 ND | 4.33 | 1 of 9 (5.07) |
| FFTFDDYAMH | LIQWNSGSIGYADSVK | VGRGGGYFDY | ND 3.77 ND | 3.77 | 1 of 9 (5.27) |
| GFTFDDYAMH | GISWDSNSIGYADSVA | VGRGGGYFDY | 0.58 0.56 -0.14 | 0.33 | 5 of 9 (4.98) |
| GFTFDDYAMH | GISWNSGSIGYANSVG | VGRGGGYDDY | ND ND ND | ND | 0 of 9 |
| GFTFADYAMH | GISWNSGSIGYADSVK | TGRGPGYFDY | ND ND ND | ND | 0 of 9 |
| GFTFDDYAMH | GIYWNSGSIGNADSVK | VGRIGGYFDY | ND ND ND | ND | 0 of 9 |

Excerpt, the final 7 entries:

CDR-H1,CDR-H2,CDR-H3,"log10 Kd, replicates",mean log10 Kd (nM),control signals
GLTFDDYAMH,GISWNSCSIGYADSVK,VGRGGGYFDY,3.74 ND 3.84,3.79,3 of 9 (4.61)
GFTFKDYACH,GISDNSGSIGYADSVK,VGRGGGYFDY,4.56 4.09 ND,4.33,1 of 9 (5.07)
FFTFDDYAMH,LIQWNSGSIGYADSVK,VGRGGGYFDY,ND 3.77 ND,3.77,1 of 9 (5.27)
GFTFDDYAMH,GISWDSNSIGYADSVA,VGRGGGYFDY,0.58 0.56 -0.14,0.33,5 of 9 (4.98)
GFTFDDYAMH,GISWNSGSIGYANSVG,VGRGGGYDDY,ND ND ND,ND,0 of 9
GFTFADYAMH,GISWNSGSIGYADSVK,TGRGPGYFDY,ND ND ND,ND,0 of 9
GFTFDDYAMH,GIYWNSGSIGNADSVK,VGRIGGYFDY,ND ND ND,ND,0 of 9

Parent in this assay: reference entry 1.86, copy in this library 0.88.
Nonspecific signal, from three strains lacking the peptide, appeared in 21% of pairings of library AAYL51, centred on 4.54 (5% of these signals below 3.26); values are not corrected for it. For each scFv, signals with the empty controls are counted beside the result, with their mean in brackets.

The measurements come from Engelhart et al. 2022 (doi:10.1038/s41597-022-01779-4) through the FLAb antibody collection.